# Only a part is listed here, and it is no random draw. Calls of active or inactive are those of the source.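 Rule for the calls: active = inhibition above the mean inhibition across the screen plus 3 SD (cut at about 25% in these data); inactive = the rest.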
# Sequences of proteins named here, by UniProt entry; tags and fusion partners are left off. A change or cut given only in a name is not applied to a line headed by its entry.
# UniProt Q13093: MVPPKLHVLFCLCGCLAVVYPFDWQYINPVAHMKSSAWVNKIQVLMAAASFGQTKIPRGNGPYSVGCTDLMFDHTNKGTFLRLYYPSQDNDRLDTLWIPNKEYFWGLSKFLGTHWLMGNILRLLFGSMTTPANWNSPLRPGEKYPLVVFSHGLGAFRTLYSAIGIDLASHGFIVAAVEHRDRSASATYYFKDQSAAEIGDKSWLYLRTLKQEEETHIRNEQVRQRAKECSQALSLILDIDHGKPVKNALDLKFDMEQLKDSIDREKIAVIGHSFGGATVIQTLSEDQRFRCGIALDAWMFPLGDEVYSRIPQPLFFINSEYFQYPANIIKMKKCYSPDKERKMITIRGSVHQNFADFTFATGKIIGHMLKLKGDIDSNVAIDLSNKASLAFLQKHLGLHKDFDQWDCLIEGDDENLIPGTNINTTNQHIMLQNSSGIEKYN
# Biological target: Platelet-activating factor acetylhydrolase (Homo sapiens) (UniProt Q13093)
# Experiment: inhibition of plasma PAF acetylhydrolase – biochemical, fluorescence polarization, human, primary screen (AID 463082);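 note: inhibitors block binding of the rhodamine activity-based probe so polarization drops; 0% = enzyme with DMSO and 100% = wells lacking pPAFAH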
# Details: recombinant pPAFAH, FP-rhodamine probe fluorescence polarization; at 3.39 µM; hits give high values
row,Structure (SMILES),inhibition
1,CCN(N=Nc1nonc1N)c1nonc1N,inactive: 0.43%
2,O=[N+]([O-])c1cc([N+](=O)[O-])c(CCN2CCOCC2)c([N+](=O)[O-])c1,active: 49.5%
3,CN(C(=O)Cc1ccc(Cl)c(Cl)c1)[C@H]1CCCC[C@@H]1N1CCCC1,inactive: 16.6%
4,Cc1ccc(NP(=O)(Oc2ccccc2F)Oc2ccccc2F)nc1,inactive: 2.13%
5,Cc1cc(SC(NC(=O)c2ccc(F)cc2)C(Cl)(Cl)Cl)ncn1 (stereo not given),inactive: -1.07%
6,CCOP(=O)(Nc1ccccc1)OCC,inactive: 2.33%
7,O=P(Nc1nc2ccc(Cl)cc2s1)(c1ccccc1)c1ccccc1,inactive: 4.6%
8,CC(=O)Nc1ccc([As](=O)(O)O)cc1,inactive: 4.95%
9,O=C(O)c1ccccc1[As](=O)(O)O,inactive: 1.13%
10,O=C(NC(Sc1ccncn1)C(Cl)(Cl)Cl)c1ccccc1 (stereo not given),inactive: 15.6%
11,Cc1c2non([O-])c-2c(C)[n+](=O)[n+]1[O-],inactive: 3.88%
12,Oc1ccccc1CNc1ccccn1,inactive: 1.4%
13,Nc1cc(N)c2nonc2c1[N+](=O)[O-],inactive: 14.7%
14,CC(C)CC(=O)NC(Sc1ccc(Cl)cc1)C(Cl)(Cl)Cl (stereo not given),inactive: 0.76%
15,CN1CCCC(OC(=O)C(c2ccccc2)c2ccccc2)C1 (stereo not given),inactive: -0.49%
16,Clc1ccc(Cl)c(NC2=NCC(CBr)S2)c1 (stereo not given),inactive: 3.06%
17,Cc1ccc(OP(=O)(Nc2nccs2)Oc2ccc(C)cc2)cc1,inactive: -3.2%
18,COc1ccccc1OP(=O)(Nc1ccc(C)cn1)Oc1ccccc1OC,inactive: 2.28%
19,Cc1ccc(N/C(=N/P(=O)(N2CCOCC2)N2CCOCC2)N2CCOCC2)cc1,inactive: -2.04%
20,CN(C(=O)Cc1ccc(Cl)c(Cl)c1)[C@H]1CCCC[C@H]1N1CCCC1,inactive: 3.04%
21,NC(=O)c1cc([N+](=O)[O-])cc([N+](=O)[O-])c1N,inactive: -0.23%
22,CC1CCN(C(=O)Oc2c(Cl)cc(Cl)c3cccnc23)CC1,inactive: 1.58%
23,CN(C)C(=O)OCCc1n(C)cc[n+]1C,inactive: 2.7%
24,CC(C)=N/N=C(\N)N[N+](=O)[O-],inactive: -4.8%
25,CCN(/C(=N/P(=O)(N1CCOCC1)N1CCOCC1)N1CCOCC1)c1ccc(OC)cc1,inactive: 7.49%

row,Structure (SMILES),inhibition
1,C[N+]1=C2C=CC=CC=C2SC12C([N+](=O)[O-])=CC([N+](=O)[O-])=C[C-]2[N+](=O)[O-] (stereo not given),active: 40.2%
2,Nc1ccc([As](=O)(O)c2ccc(N)cc2)cc1,inactive: 5.91%
3,O=[N+]([O-])c1cc([N+](=O)[O-])c(CCNc2ccccc2)c([N+](=O)[O-])c1,active: 33.7%
4,CCc1nc2c(n1)c1c(non1O)c1c2no[n+]1[O-],inactive: 6.32%
5,Cc1ccc(NP(=O)(Oc2ccccc2)Oc2ccccc2)nc1,inactive: -11.8%
6,CC(=O)N1C2C3N(C(C)=O)C1C1N(C(C)=O)C(C(N1C(C)=O)N3C(C)=O)N2C(C)=O,inactive: 4.06%
7,O=[N+]([O-])c1cccc2n[nH]nc12,inactive: 1.28%
8,COc1ccc(C2=NCC(CBr)S2)cc1 (stereo not given),inactive: -0.76%
9,O=[N+]([O-])c1cccc(NC2=NCC(CBr)S2)c1 (stereo not given),inactive: 2.49%
10,O=[N+]([O-])c1ncn(CCn2ncnc2[N+](=O)[O-])n1,inactive: 1.27%
11,CC(C)(C)C(=O)NC(Sc1ccncn1)C(Cl)(Cl)Cl (stereo not given),inactive: -0.22%
12,O=C(Nc1cc([As](=O)(O)O)ccc1O)c1ccccc1,inactive: 1.15%
13,O=C(OC1CN2CCC1CC2)c1cccc(Cl)c1 (stereo not given),inactive: 5.21%
14,C(Cc1nn[nH]n1)Cc1nn[nH]n1,inactive: -1.38%
15,Nc1ccc([As](=O)(O)c2ccc([N+](=O)[O-])cc2)cc1,inactive: 1.55%
16,O=[As](O)(c1ccccc1)c1ccc(O)cc1,inactive: 0.98%
17,O=[N+]([O-])c1ncn(CCn2cnc([N+](=O)[O-])n2)n1,inactive: 2.82%
18,CC(=O)NC(SC(=S)N(C)C)C(Cl)(Cl)Cl (stereo not given),inactive: -0.15%
19,O=[N+]([O-])c1ccc(O)c(/C=N/Nc2ccc([N+](=O)[O-])cc2[N+](=O)[O-])c1,inactive: 4.36%
20,C[C@H]1OP(=O)(Oc2ccccc2)[C@H](O)[C@H](O)[C@H]1N=[N+]=[N-] (stereo not given in full),inactive: -1.66%
21,O=P(Nc1nc2ccccc2s1)(c1ccccc1)c1ccccc1,inactive: 4.33%
22,CN(C)C1(CNC(=O)c2ccc(Cl)c(S(N)(=O)=O)c2)CCCCC1,inactive: 9.74%
23,O=P(Nc1ccccn1)(c1ccc(Br)cc1)c1ccc(Br)cc1,inactive: 0.9%
24,c1nnnn1CCn1cnnn1,inactive: -4.86%
25,O=P(Nc1nccs1)(c1ccccc1)c1ccccc1,inactive: -2%

row,Structure (SMILES),inhibition
1,CC(C)C(=O)NC(Sc1ccccc1)C(Cl)(Cl)Cl (stereo not given),inactive: 2.74%
2,CC(=O)Nc1ccc(Oc2c([N+](=O)[O-])cc([N+](=O)[O-])cc2[N+](=O)[O-])cc1,inactive: 2.22%
3,CC(=O)Nc1ccc([As](=O)(O)O)c(O)c1,inactive: -0.57%
4,C[C@H]1OP(=O)(Oc2ccccc2)C[C@@H]2O[C@@H]21 (stereo not given in full),inactive: 9.36%
5,C[C@@H]1C=CCP(=O)(Oc2ccccc2)O1 (stereo not given in full),inactive: 2.78%
6,Cc1ccccc1CN(C)C(=O)COC(=O)C(O)(c1ccccc1)c1ccccc1,inactive: 2.02%
7,CC(=O)c1ccc(N2CC2c2ccncc2)cc1 (stereo not given),inactive: 4.91%
8,CC(C)(C)C(=O)NC(Sc1ccccc1)C(Cl)(Cl)Cl (stereo not given),inactive: 7.3%
9,CCOc1ccc(C2=NCC(CBr)S2)cc1 (stereo not given),inactive: -2.23%
10,O=P1(Nc2nc3ccc(Cl)cc3s2)COc2ccccc2O1 (stereo not given),inactive: 1.58%
11,CN(C)C(=O)Oc1noc2ccccc12,inactive: -1.53%
12,CC(NC(=O)COC(=O)C(O)(c1ccccc1)c1ccccc1)c1ccccc1 (stereo not given),inactive: 0.41%
13,Cc1ccccc1OP(=O)(Nc1ccccn1)Oc1ccccc1C,inactive: 7.09%
14,CCC(=O)N1C2C3N(C(=O)CC)C1C1N(C(=O)CC)C(C(N1C(=O)CC)N3C(=O)CC)N2C(=O)CC,inactive: 3.34%
15,O=C(OC1CN2CCC1CC2)c1ccccc1 (stereo not given),inactive: -7.26%
16,Cc1ccc(OP(=O)(Nc2ccccn2)Oc2ccc(C)cc2)cc1,inactive: 5.68%
17,CC(=O)NC(SC(=S)N(CC(C)C)CC(C)C)C(Cl)(Cl)Cl (stereo not given),inactive: 0.36%
18,COC(=O)c1cc2c(s1)N=C(c1ccccc1)N(C)P2(=O)N1CCOCC1 (stereo not given),inactive: 3.7%
19,CCOC(=O)NC(Sc1ccccc1)C(Cl)(Cl)Cl (stereo not given),inactive: 7.3%
20,Cc1ccc(NP(=O)(Oc2cccc(C)c2)Oc2cccc(C)c2)nc1,inactive: 1.3%
21,c1ccc(-c2nn[nH]n2)c(-c2nn[nH]n2)c1,inactive: -2.55%
22,O=C(NC1CCS(=O)(=O)C1)NP(=S)(Oc1ccccc1)Oc1ccccc1 (stereo not given),inactive: 1.36%
23,CCNC(=S)/N=C(\N)N[N+](=O)[O-],inactive: 3.89%
24,CN(C(=O)Cc1ccccc1)[C@@H]1CC[C@]2(CCCO2)C[C@H]1N1CCCC1,inactive: 2.52%
25,CCOP1(=S)c2c(C)nn(CCC#N)c2N=C(c2ccc(F)cc2)N1C (stereo not given),inactive: 3.8%

row,Structure (SMILES),inhibition
1,N#CCCN(C(=O)COC(=O)C(O)(c1ccccc1)c1ccccc1)c1ccc(F)cc1,inactive: -0.95%
2,CN(C(=O)Cc1ccc(Cl)c(Cl)c1)[C@H]1CC[C@@]2(CCCO2)C[C@@H]1N1CCCC1,inactive: 4.39%
3,O=[N+]([O-])c1ccc2c(c1)nnn2O,inactive: 3.44%
4,CN(C)C(=O)c1cc([N+](=O)[O-])cc2c1-c1c(cc([N+](=O)[O-])cc1[N+](=O)[O-])C2=O,active: 33.5%
5,NC(=O)Nc1ccc([As](=O)(O)O)cc1,inactive: 0.82%
6,O=C(O)COc1ccc([As](=O)(O)O)cc1[N+](=O)[O-],inactive: 7.94%
7,Nc1ccccc1[As](=O)(O)c1ccccc1,inactive: -2.52%
8,O=P(Nc1nccs1)(Oc1ccccc1)Oc1ccccc1,inactive: -3.57%
9,O=P(Nc1nccs1)(c1ccccc1)c1nc2ccccc2s1 (stereo not given),inactive: 4.03%
10,CCOP1(=S)c2c(C)nn(CCC#N)c2N=C(c2ccccc2F)N1C (stereo not given),inactive: 2.27%
11,CS(=O)(=O)c1cc([N+](=O)[O-])c2no[n+]([O-])c2c1,inactive: 2.17%
12,CCOP(=O)(Nc1cccc2ccccc12)OCC,inactive: 6.61%
13,COc1cc(C2NCCC3(OCCO3)C2(C)C)cc(OC)c1OC (stereo not given),inactive: -0.3%
14,Nc1cccc2c([As](=O)(O)O)cccc12,active: 43.1%
15,Cc1ccc(NCCc2c([N+](=O)[O-])cc([N+](=O)[O-])cc2[N+](=O)[O-])cc1,active: 27.5%
16,CCCOP(=S)(Nc1nc(N)cc(=O)[nH]1)OCCC,inactive: 1.99%
17,Cc1cccc(OCC(=O)OC2CN3CCC2CC3)c1 (stereo not given),inactive: 5.2%
18,O=[As](O)(c1cccc(O)c1)c1cccc(O)c1,inactive: 3.39%
19,O=C(OC1CN2CCC1CC2)c1ccc(Cl)cc1 (stereo not given),inactive: 0.14%
20,CS(=O)(=O)c1ccc(Cl)c(NC(=O)COC(=O)C(O)(c2ccccc2)c2ccccc2)c1,inactive: 3.77%
21,O=[As](O)(O)c1cccnc1,inactive: -3.55%
22,COc1cc(C(=O)NCC2(N3CCOCC3)CCCCC2)cc(Cl)c1OC(C)C,inactive: 2.51%
23,CN(C(=O)Cc1ccc(Cl)c(Cl)c1)[C@@H]1CCCC[C@H]1N1CCCC1,inactive: -0.4%
24,CC(C)/C=N\N=C(\N)N[N+](=O)[O-],inactive: -1.19%
25,CC1(CBr)Cn2c(nc3ccccc3c2=O)S1 (stereo not given),inactive: 2.48%
